Measured values reported in PubChem BioAssay (NCI).
Only a part is listed here, and it is no random draw.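 Interpretation: 100, growth as untreated; towards 0, rising growth inhibition; 0, no net growth; 0 to -100, cell death. Compounds scoring below 10 were considered active.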 Activity calls are given as the source filed them.

Tests used:
Test in all cases: NCI-60 one-dose screen, 48 h (100 = growth as untreated, 0 = no growth, -100 = all killed)
Conditions in all cases: 10 µM unless noted
[1] = test system: MOLT-4 leukemia
[2] = test system: SR leukemia
[3] = test system: OVCAR-8 ovarian
[4] = test system: OVCAR-5 ovarian
[5] = test system: OVCAR-4 ovarian
[6] = test system: SK-OV-3 ovarian
[7] = test system: IGROV1 ovarian
[8] = test system: OVCAR-3 ovarian
[9] = test system: HS 578T breast
[10] = test system: NCI/ADR-RES ovarian
[11] = test system: T-47D breast
[12] = test system: BT-549 breast
[13] = test system: MDA-MB-435 melanoma
[14] = test system: SW-620 colon
[15] = test system: MCF7 breast
[16] = test system: HCT-116 colon
[17] = test system: HCC-2998 colon
[18] = test system: KM12 colon
[19] = test system: RPMI-8226 leukemia

With `OC(CNCCCl)C(O)C(O)C(O)CNCCCl` (stereo not given) the growth [1] was inactive: 82.3%, the growth [2] was inactive: 71.7% and the growth [3] was inactive: 86%. For the same compound, the growth [4] was inactive: 106%, the growth [5] was inactive: 94.9% and the growth [6] was inactive: 103%. For the same compound, the growth [7] was inactive: 94.1%, the growth [8] was inactive: 109% and the growth [9] was inactive: 120%. For the same compound, the growth [10] was inactive: 96%, the growth [11] was inactive: 91.8% and the growth [12] was inactive: 94.6%. For the same compound, the growth [13] was inactive: 105%, the growth [14] was inactive: 95.4% and the growth [15] was inactive: 91.2%. For the same compound, the growth [16] was inactive: 96.2%, the growth [17] was inactive: 108% and the growth [18] was inactive: 105%.
In the case of `O=C(O)CNc1ccc([As](=O)(O)O)cc1`, the growth [1] is reported as inactive: 101%, the growth [2] is reported as inactive: 107% and the growth [3] is reported as inactive: 108%. For the same compound, the growth [4] was inactive: 132%, the growth [5] was inactive: 100% and the growth [6] was inactive: 100%. The growth [8] was inactive: 109%, the growth [9] was inactive: 98.2% and the growth [10] was inactive: 122%. The growth [11] was inactive: 91.5%, the growth [12] was inactive: 107% and the growth [13] was inactive: 99.1%. For the same compound, the growth [14] was inactive: 97.8%, the growth [15] was inactive: 94.4% and the growth [16] was inactive: 101%. The growth [17] was inactive: 117% and the growth [18] was inactive: 99.2%.
In the case of `O=[As](O)(O)c1cccnc1`, the growth [1] is reported as inactive: 108%, the growth [2] is reported as inactive: 127% and the growth [3] is reported as inactive: 108%. The growth [4] was inactive: 115%, the growth [5] was inactive: 108% and the growth [6] was inactive: 104%. The growth [8] was inactive: 104%, the growth [9] was inactive: 125% and the growth [10] was inactive: 122%. The growth [11] was inactive: 104%, the growth [12] was inactive: 115% and the growth [13] was inactive: 107%. For the same compound, the growth [14] was inactive: 107%, the growth [15] was inactive: 98.4% and the growth [16] was inactive: 101%. The growth [17] was inactive: 120% and the growth [18] was inactive: 112%.
With `CCOC(=O)c1sc2ncnc(NCCCl)c2c1C` the growth [1] was inactive: 93.2%, the growth [19] was inactive: 97.8% and the growth [3] was inactive: 99.2%. For the same compound, the growth [4] was inactive: 96.2%, the growth [5] was inactive: 97.5% and the growth [6] was inactive: 95.2%. For the same compound, the growth [7] was inactive: 104%, the growth [8] was inactive: 103% and the growth [9] was inactive: 102%. The growth [10] was inactive: 97.7%, the growth [11] was inactive: 86.8% and the growth [12] was inactive: 103%. For the same compound, the growth [13] was inactive: 105%, the growth [14] was inactive: 105% and the growth [15] was inactive: 105%. For the same compound, the growth [16] was inactive: 104% and the growth [18] was inactive: 104%.
In the case of `Nc1ccc(N=Nc2ccc([As](=O)(O)O)cc2)cc1`, the growth [1] is reported as inactive: 97.6%, the growth [19] is reported as inactive: 110% and the growth [3] is reported as inactive: 114%. The growth [4] was inactive: 95.6%, the growth [5] was inactive: 107% and the growth [6] was inactive: 99.8%. The growth [7] was inactive: 104%, the growth [8] was inactive: 107% and the growth [9] was inactive: 111%. The growth [10] was inactive: 108%, the growth [11] was inactive: 103% and the growth [12] was inactive: 102%. For the same compound, the growth [13] was inactive: 107%, the growth [14] was inactive: 106% and the growth [15] was inactive: 102%. For the same compound, the growth [16] was inactive: 104%, the growth [17] was inactive: 110% and the growth [18] was inactive: 103%.
In the case of `COc1cc(I)ccc1[As](=O)(O)O`, the growth [1] is reported as inactive: 95.5%, the growth [2] is reported as inactive: 109% and the growth [3] is reported as inactive: 97.6%. The growth [4] was inactive: 153%, the growth [5] was inactive: 106% and the growth [6] was inactive: 109%. The growth [9] was inactive: 144%, the growth [10] was inactive: 140% and the growth [11] was inactive: 95.7%. For the same compound, the growth [12] was inactive: 123%, the growth [13] was inactive: 103% and the growth [14] was inactive: 132%. For the same compound, the growth [15] was inactive: 95.7%, the growth [16] was inactive: 98.4% and the growth [17] was inactive: 120%. For the same compound, the growth [18] was inactive: 115%.
In the case of `NCCSP(=O)(O)O`, the growth [1] is reported as inactive: 124%, the growth [19] is reported as inactive: 106% and the growth [3] is reported as inactive: 104%. The growth [4] was inactive: 103%, the growth [5] was inactive: 111% and the growth [6] was inactive: 109%. The growth [7] was inactive: 113%, the growth [8] was inactive: 109% and the growth [9] was inactive: 105%. The growth [10] was inactive: 110%, the growth [11] was inactive: 109% and the growth [13] was inactive: 109%. The growth [14] was inactive: 101%, the growth [15] was inactive: 112% and the growth [16] was inactive: 111%. The growth [17] was inactive: 108% and the growth [18] was inactive: 109%.
For `ClCCN(Cc1ccc(Cl)cc1)Cc1ccc(Cl)cc1`, the growth [1] was inactive: 42.4%, the growth [19] was inactive: 18.7% and the growth [3] was inactive: 73.4%. For the same compound, the growth [4] was inactive: 104%, the growth [5] was inactive: 92.1% and the growth [6] was inactive: 102%. For the same compound, the growth [7] was active: -18.9%, the growth [8] was inactive: 101% and the growth [9] was inactive: 101%. For the same compound, the growth [10] was inactive: 89.5%, the growth [11] was inactive: 75% and the growth [12] was inactive: 97.5%. The growth [13] was inactive: 100%, the growth [14] was inactive: 76.7% and the growth [15] was inactive: 58.2%. The growth [16] was inactive: 93.5%, the growth [17] was inactive: 110% and the growth [18] was inactive: 99.4%.
In the case of `ClP1(Cl)=NP(Cl)(Cl)=NP(Cl)(Cl)=N1`, the growth [1] is reported as inactive: 93%, the growth [19] is reported as inactive: 89.2% and the growth [3] is reported as inactive: 100%. The growth [4] was inactive: 90.6%, the growth [5] was inactive: 124% and the growth [6] was inactive: 109%. The growth [7] was inactive: 101%, the growth [8] was inactive: 119% and the growth [9] was inactive: 77.2%. For the same compound, the growth [10] was inactive: 90.6%, the growth [11] was inactive: 109% and the growth [12] was inactive: 107%. The growth [13] was inactive: 102%, the growth [14] was inactive: 102% and the growth [15] was inactive: 96.8%. For the same compound, the growth [16] was inactive: 102% and the growth [18] was inactive: 112%.
